The numbers were not newly measured in article PMC6608616, “Conservation of the structure and function of bacterial tryptophan synthases” (2019), which cites them from elsewhere.

The test system of the series is EcTrpAB. The note with it: previously characterized, ref Lane & Kirschner, 1983; cited from earlier work.

Consider `N[C@@H](CO)C(=O)O`, for which the “K m for serine” value is 370 µM.
